The list shows a part of the results. These assays gave more results; the selection is not random. The source made the active and inactive calls. No cut-off for these calls is given here.
Experiment: qHTS Assay for the Inhibitors of L3MBTL1: Hit Validation in AlphaScreen Counterscreen.
Type: functional

CCc1nc2c([nH]1)c1no[n+]([O-])c1c1no[n+]([O-])c21
Potency: inactive

From ChEMBL document CHEMBL1201862, “PubChem BioAssay data set” (2004)
